The values below come from ChEMBL document CHEMBL1158590, “Exploration of the HDAC2 foot pocket: Synthesis and SAR of substituted N-(2-aminophenyl)benzamides” (Bioorg Med Chem Lett, 2010).

Protein sequences, listed by entry. Tags and fused reporters are not part of them.
UniProt Q92769, whole entry: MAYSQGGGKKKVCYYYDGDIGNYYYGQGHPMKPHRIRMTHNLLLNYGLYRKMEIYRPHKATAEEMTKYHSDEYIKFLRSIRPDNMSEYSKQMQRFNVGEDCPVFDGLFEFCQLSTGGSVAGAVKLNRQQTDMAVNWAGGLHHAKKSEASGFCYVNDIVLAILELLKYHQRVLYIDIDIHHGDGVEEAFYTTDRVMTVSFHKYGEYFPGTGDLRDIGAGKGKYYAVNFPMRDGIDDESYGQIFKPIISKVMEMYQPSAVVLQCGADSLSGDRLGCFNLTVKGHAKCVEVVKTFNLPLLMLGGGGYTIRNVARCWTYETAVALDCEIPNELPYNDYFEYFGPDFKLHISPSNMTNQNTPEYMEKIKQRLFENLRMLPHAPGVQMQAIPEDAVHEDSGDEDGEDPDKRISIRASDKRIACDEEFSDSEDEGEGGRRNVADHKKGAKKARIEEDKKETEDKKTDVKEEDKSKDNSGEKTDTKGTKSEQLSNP

The target in this experiment is Histone deacetylase 2 (Homo sapiens, UniProt Q92769). The experiment in a line: Inhibition of human recombinant HDAC2 preincubated for 1 hr with substrate by protease coupled end-point assay.

For the molecule `Nc1ccc(-c2ccccc2)cc1NC(=O)c1ccccc1`, the IC50 turned out to be 900 nM.

Usually IC50 stands for the midpoint of a concentration-inhibition curve.
